ChEMBL document CHEMBL5058646 (2022)

By UniProt entry, the sequences of proteins in these tests, tags left out. Where a name states a change or a piece, a line headed by the entry shows the natural chain unless it says otherwise.
UniProt Q8IU85: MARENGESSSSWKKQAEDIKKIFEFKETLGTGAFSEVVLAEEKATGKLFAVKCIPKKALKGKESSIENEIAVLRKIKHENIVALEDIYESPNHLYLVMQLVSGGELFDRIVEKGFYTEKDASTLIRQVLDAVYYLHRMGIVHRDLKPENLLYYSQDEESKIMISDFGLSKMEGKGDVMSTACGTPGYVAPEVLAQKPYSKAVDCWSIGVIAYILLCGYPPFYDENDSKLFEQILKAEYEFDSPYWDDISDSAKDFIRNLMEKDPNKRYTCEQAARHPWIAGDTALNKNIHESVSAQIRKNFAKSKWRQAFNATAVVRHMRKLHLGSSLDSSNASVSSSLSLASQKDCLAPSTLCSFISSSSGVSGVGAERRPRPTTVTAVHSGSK

Assays:
[1] = target: Calcium/calmodulin-dependent protein kinase type 1D (Homo sapiens) (UniProt Q8IU85); settings: Compound concentration 20.0 uM
[2] = target: T1, Zinc finger and BTB domain-containing protein 10 (Homo sapiens) (UniProt Q96DT7); settings: SUD4
T1 sequence (whole entry): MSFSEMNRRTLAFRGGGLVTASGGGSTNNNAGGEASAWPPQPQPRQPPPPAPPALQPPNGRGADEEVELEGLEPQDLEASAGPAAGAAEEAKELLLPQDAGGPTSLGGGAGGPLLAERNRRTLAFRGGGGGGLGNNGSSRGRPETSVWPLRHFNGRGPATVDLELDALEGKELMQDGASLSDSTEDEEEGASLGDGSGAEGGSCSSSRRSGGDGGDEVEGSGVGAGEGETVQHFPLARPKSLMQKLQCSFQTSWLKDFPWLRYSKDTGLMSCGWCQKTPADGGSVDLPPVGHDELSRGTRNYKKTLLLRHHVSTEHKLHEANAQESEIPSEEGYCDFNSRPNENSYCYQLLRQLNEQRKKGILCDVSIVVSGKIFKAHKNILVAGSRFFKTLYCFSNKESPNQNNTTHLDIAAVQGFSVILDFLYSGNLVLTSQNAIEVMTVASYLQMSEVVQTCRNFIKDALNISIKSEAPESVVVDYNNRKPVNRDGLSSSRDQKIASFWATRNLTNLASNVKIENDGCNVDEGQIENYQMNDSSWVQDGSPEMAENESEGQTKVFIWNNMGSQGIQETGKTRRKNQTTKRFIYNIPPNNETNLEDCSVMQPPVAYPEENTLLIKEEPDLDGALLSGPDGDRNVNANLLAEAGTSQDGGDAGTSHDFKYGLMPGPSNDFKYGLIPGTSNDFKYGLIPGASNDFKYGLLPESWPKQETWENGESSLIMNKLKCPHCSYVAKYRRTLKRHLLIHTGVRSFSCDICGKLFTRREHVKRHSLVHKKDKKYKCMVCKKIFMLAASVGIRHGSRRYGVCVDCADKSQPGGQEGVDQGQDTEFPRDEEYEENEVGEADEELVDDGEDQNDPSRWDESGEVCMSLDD

[3] = target: T2, Zinc finger and BTB domain-containing protein 2 (Homo sapiens) (UniProt Q8N680); settings: SUD4
T2 sequence (whole entry): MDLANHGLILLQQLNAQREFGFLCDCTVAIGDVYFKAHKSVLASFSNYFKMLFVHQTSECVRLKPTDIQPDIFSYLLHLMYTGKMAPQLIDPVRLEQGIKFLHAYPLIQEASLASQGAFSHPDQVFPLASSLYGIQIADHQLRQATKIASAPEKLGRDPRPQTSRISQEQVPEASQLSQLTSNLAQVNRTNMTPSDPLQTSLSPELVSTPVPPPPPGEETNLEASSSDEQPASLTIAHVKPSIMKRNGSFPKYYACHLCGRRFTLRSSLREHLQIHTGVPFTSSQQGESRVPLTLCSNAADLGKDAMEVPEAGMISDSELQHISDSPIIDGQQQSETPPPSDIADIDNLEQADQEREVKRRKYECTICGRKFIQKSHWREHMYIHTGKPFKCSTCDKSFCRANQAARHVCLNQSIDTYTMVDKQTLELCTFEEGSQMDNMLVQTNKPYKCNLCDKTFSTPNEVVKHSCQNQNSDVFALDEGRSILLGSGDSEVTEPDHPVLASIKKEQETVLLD

[4] = target: T3, Zinc finger and BTB domain-containing protein 21 (Homo sapiens) (UniProt Q9ULJ3); settings: SUD4
T3 sequence (whole entry): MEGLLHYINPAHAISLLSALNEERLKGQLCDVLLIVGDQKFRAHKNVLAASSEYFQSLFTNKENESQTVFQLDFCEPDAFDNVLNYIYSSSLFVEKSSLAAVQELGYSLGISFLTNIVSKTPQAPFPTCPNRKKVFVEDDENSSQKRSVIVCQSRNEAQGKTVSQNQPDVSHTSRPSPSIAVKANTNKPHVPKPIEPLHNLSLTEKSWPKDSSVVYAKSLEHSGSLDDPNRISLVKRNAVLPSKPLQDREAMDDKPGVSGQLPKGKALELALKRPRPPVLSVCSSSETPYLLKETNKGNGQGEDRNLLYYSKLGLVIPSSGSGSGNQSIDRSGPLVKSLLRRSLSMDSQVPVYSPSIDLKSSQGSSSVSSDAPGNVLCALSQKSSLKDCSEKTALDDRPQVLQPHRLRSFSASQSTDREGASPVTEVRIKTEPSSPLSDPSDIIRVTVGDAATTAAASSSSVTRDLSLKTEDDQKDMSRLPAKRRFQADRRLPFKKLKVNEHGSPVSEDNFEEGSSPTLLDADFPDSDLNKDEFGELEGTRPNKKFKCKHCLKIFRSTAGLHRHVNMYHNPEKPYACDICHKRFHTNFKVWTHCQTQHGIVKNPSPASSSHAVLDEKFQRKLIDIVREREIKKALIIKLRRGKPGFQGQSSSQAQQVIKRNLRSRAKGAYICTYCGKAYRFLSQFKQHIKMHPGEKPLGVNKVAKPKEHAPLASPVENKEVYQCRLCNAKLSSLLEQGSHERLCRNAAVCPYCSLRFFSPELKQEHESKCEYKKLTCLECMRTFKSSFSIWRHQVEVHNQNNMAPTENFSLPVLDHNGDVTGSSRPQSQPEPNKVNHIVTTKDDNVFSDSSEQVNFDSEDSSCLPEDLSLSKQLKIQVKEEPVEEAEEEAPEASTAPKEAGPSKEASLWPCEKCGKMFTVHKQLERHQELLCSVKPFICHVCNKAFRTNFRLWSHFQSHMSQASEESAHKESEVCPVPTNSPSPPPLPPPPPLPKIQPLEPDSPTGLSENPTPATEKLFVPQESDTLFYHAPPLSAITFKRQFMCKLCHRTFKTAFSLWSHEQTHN

[5] = target: T1, Zinc finger and BTB domain-containing protein 10 (Homo sapiens); settings: OCI-Ly1
[6] = target: T2, Zinc finger and BTB domain-containing protein 2 (Homo sapiens); settings: OCI-Ly1

C[C@@H]1CN(c2ncc(Cl)c(Nc3ccc4c(c3)n(CCC(C)(C)O)c(=O)n4C)n2)C[C@H](C)C1(F)F
Tm [1]: 49 °C | Normalized abundances for DMSO [2]: 3600 | Normalized abundances for compound [2]: 3670 | Normalized abundances for DMSO [3]: 686 | Normalized abundances for compound [3]: 700 | Normalized abundances for DMSO [4]: 402 | Normalized abundances for compound [4]: 407 | Normalized abundances for DMSO [5]: 346 | Normalized abundances for compound [5]: 371 | Normalized abundances for DMSO [6]: 15 | Normalized abundances for compound [6]: 17.7
